Data: ChEMBL document CHEMBL4811216, “Chemotherapy for human schistosomiasis: how far have we come? What's new? Where do we go from here?” (RSC Med Chem, 2020)

Legend:
[1] = tested on: Schistosoma mansoni; test: microbe, parasite or virus in culture; details: Liberian, 72 h
[2] = tested on: Schistosoma mansoni; test: microbe, parasite or virus in culture; details: 72 h

Structure (SMILES) | IC50 [1] [µM] | IC50 [2] [µM]
Nc1nc2ccc(Cl)cc2c2nc(-c3ccco3)nn12 [CGS-15943] | 1.7 | 
CC#CC(=O)Nc1ccc2ncnc(Nc3cccc(Br)c3)c2c1 |  | 3.7
Fc1ccc(Cl)cc1-c1nc(Nc2ccncc2)c2nccnc2n1 | 7.2 | 7.5
COc1ccc(NC(=O)c2ccc(-c3ccc(-c4noc(C)n4)cc3C)cc2)cc1N1CCN(C)CC1 [GR-127935] | 1.2 | 2.7
CNCc1ccc(C)c(NC(=O)c2ccc(Nc3nc(-c4ccccc4)c4ccccc4n3)cc2)c1 [BMS-833923] | 3.5 | 2.5
O=C(O)Cc1cccc(OCCCN(Cc2cccc(C(F)(F)F)c2Cl)CC(c2ccccc2)c2ccccc2)c1 | 2.1 | 
CCOc1cc2ncc(C#N)c(Nc3ccc(F)c(Cl)c3)c2cc1NC(=O)/C=C/CN(C)C [PELITINIB] |  | 2.9
